Binding of CDR-mutated scFvs to a peptide of the spike HR2 region

Target: peptide PDVDLGDISGINAS, taken from heptad repeat 2 (HR2) of SARS-CoV-2 spike.

Parent scFv Ab-14: VH joined to VL by three GGGGS repeats. Changes lie in the light chain CDRs alone.
VH: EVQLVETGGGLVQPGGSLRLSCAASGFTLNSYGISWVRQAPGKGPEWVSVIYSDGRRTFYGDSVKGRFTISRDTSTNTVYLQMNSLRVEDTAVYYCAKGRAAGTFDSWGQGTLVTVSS
VL: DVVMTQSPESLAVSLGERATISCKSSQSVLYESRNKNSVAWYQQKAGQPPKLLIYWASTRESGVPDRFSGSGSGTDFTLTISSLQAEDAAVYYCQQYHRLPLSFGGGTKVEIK

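The starting antibody came from a phage panning campaign against this peptide. The library (AAYL50) carries one to three amino acid substitutions per variant, with no insertions or deletions. Affinity was read by AlphaSeq, a pooled yeast mating assay with surface-displayed partners. Pairs that bind mate more often; barcode pairs of the diploids are counted by sequencing. A regression on co-assayed BCL2-family reference pairs converts the normalised counts of each replicate to an apparent Kd. Each pool was mated in three replicate cultures.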

Substitutions are numbered in sequence along the VL above, starting at 1 (not Kabat).
All variants listed here change A40 of the VL, counted from its first residue.
The Kd shown is the geometric mean over detected replicates; a lower Kd is a better binder.
Where no diploid with the target was found in any replicate, the entry reads "nd": below detection, most likely a poor binder, though not proof of it.
Three control strains display no target. For library AAYL50, 18% of the pairings with them gave a signal, with a median of 15 µM and one signal in twenty below 970 nM, so weak values seen in few replicates may be background.

| changes | Kd (apparent) | detected |
|---|---|---|
| A40V | 100 µM | 1 of 3 |
| Q27I+L30I+A40C | 9.5 µM | 2 of 3 |
| S28N+A40M | nd | 0 of 3 |
| S28C+A40W+R99P | nd | 0 of 3 |
| S25M+A40F+T59A | nd | 0 of 3 |
| S28P+S38E+A40T | 40 µM | 1 of 3 |
| S26L+A40R+R60W | 6.8 µM | 1 of 3 |
| L30V+N37I+A40C | 120 µM | 3 of 3 |
| K24Y+A40M+R99W | 63 µM | 2 of 3 |
| N37Y+A40C+H98T | 3.2 µM | 1 of 3 |
| E32M+A40Q+W56Y | nd | 0 of 3 |
| K24L+S26I+A40K | nd | 0 of 3 |
| S25C+A40E+Y97S | 7.1 µM | 1 of 3 |
| A40N+Y97I+H98W | nd | 0 of 3 |
| R34S+A40M+R99E | 34 µM | 2 of 3 |
| A40C+E61D+H98K | nd | 0 of 3 |
| N35W+A40D+L102W | nd | 0 of 3 |
| S38F+A40C+A57R | 31 µM | 1 of 3 |
| A40I+W56R+R60D | nd | 0 of 3 |
| S28W+A40Y+Y97C | nd | 0 of 3 |
| V39M+A40T+L100M | nd | 0 of 3 |
| Y31D+A40M+Q95M | 1.5 µM | 1 of 3 |
| N37G+A40H | 75 µM | 2 of 3 |
| K24M+A40N+R60C | nd | 0 of 3 |
| K24V+S38W+A40F | 130 µM | 3 of 3 |
| A40Y+W56H+Q96F | nd | 0 of 3 |
| A40P+T59K+Q96W | nd | 0 of 3 |
| K24M+K36F+A40Y | nd | 0 of 3 |
| A40T+Q95S+L100V | nd | 0 of 3 |
| S26I+A40D+E61S | nd | 0 of 3 |
| S25P+A40I+H98V | 2.0 µM | 1 of 3 |
| S33P+A40G+Y97P | nd | 0 of 3 |
| A40I+S62C | 130 µM | 1 of 3 |
| L30N+R34A+A40E | 3.9 µM | 2 of 3 |
| A40V+H98F | 45 µM | 3 of 3 |
| L30Y+K36M+A40N | nd | 0 of 3 |
| A40Y+L102Q+S103R | 9.6 µM | 1 of 3 |
| R34F+S38T+A40S | 7.8 nM | 3 of 3 |
| A40W+Q96V+H98F | nd | 0 of 3 |
| A40G+S58Y | 27 µM | 2 of 3 |
| A40W+H98E+L102G | nd | 0 of 3 |
| N37F+A40V+W56C | 40 µM | 3 of 3 |
| A40E+A57H+R99M | 650 nM | 1 of 3 |
| N37C+A40R+S58L | 520 nM | 1 of 3 |
| S33N+R34N+A40P | 140 µM | 1 of 3 |
| A40N+W56V+P101L | nd | 0 of 3 |
| R34H+A40R+S62G | 9.7 µM | 1 of 3 |
| S26R+S33A+A40C | 380 µM | 3 of 3 |
| N35A+A40T | nd | 0 of 3 |
| L30Y+S38Y+A40E | nd | 0 of 3 |
| E32Y+A40E+A57Y | 260 µM | 1 of 3 |
| Q27P+A40P+P101Y | nd | 0 of 3 |
| S38W+A40N+P101D | 100 µM | 2 of 3 |
| R34I+A40H+W56C | 12 µM | 2 of 3 |
| Q27S+A40S | 800 nM | 3 of 3 |
| V39E+A40M+S103K | nd | 0 of 3 |

Top 5 of the variants detected in all replicates, tightest first:

| changes | Kd (apparent) | detected |
|---|---|---|
| R34F+S38T+A40S | 7.8 nM | 3 of 3 |
| Q27S+A40S | 800 nM | 3 of 3 |
| N37F+A40V+W56C | 40 µM | 3 of 3 |
| A40V+H98F | 45 µM | 3 of 3 |
| L30V+N37I+A40C | 120 µM | 3 of 3 |

The measurements come from Engelhart et al. 2022 (doi:10.1038/s41597-022-01779-4) through the FLAb antibody collection.